For orientation: koff means a measure of how fast the partners let go of each other. Lower therefore signals slow dissociation. The term kon denotes the rate constant with which the complex forms. A low value points to slow association.

In test [1] the target is T1, human REG4 (Regenerating islet-derived Gene Type IV) protein (human, UniProt Q9BYZ8 23-158).
T1 construct: Recombinant human REG4 made in house (Schering-Plough BioPharma REG4_H, lot 04ABY), amine-coupled to a CM5 chip; also called hREG4 protein; REG4_H, lot 04ABY
Put plainly: SPR, Biacore T100, REG4 amine-coupled to CM5 chip, antibody as analyte, bivalent analyte model. On the procedure: (§1) The kinetic binding activity of Rat Anti-REG4_H antibodies against Schering-Plough BioPharma REG4_H, lot 04ABY, was measured by surface plasmon resonance using a Biacore T100 system (Biacore, GE Healthcare, Piscataway, N.J.). […] Schering-Plough BioPharma Rat Anti-REG4_H antibodies were injected over the immobilized REG4_H surface at varying concentrations, ranging from [0.091 nM to 600 nM], at a flow rate of 30 μL/min. Following each injection cycle, the CM5 chip surface was regenerated using a 10 mM Glycine pH 1.5 solution followed by an injection of 25 mM NaOH solution at a flow rate of 75 μL/min.
(§2) Background subtraction binding sensorgrams were used for analyzing the rate constants; association (kₐ), dissociation (kd), and the equilibrium dissociation constant KD. The resulting data sets were fitted with a Bivalent Analyte Model using the Biacore T100 evaluation software (version 1.1.1).

Test [2] addresses T1, human REG4 (Regenerating islet-derived …). Put plainly: SPR, Biacore T100, REG4 amine-coupled to CM5 chip, antibody as analyte, bivalent analyte model; apparent Kd. The protocol:
as §1, §2
A general note: In SPR one partner is held on a chip, and binding of the other changes the refractive index at the surface.

B1: 3C2.3D10 (antibody, V domains shown)
VH: EVKVVASGGILVQPGGSLKLSCIVSGFTFRSYIMSWVRQNPEKRLEWVAEINDGGSYTHYPDTVKGRFIVSRDNDNNILYLQMNSLKSEDTAMYYCVRHGSNGYDYFGMDYWGQGTSVTVSS
VL: DVLMTQTPLSLSVSLGDQASISCRSSQTIAHRNGITYLEWYLQKPGQSPKLLMYKVSNRFSGVPDRFSGSGSGTDFTLKISRVEAEDLGLYYCFQNSHLPPTFGGGTNLEIKR
notes: Rat monoclonal antibody with kappa light chain; also called Rat Anti-REG4_H antibody; REG4 antibody 3C2.3D10
In test [1], B1 gave a koff of 1.8e-05 s⁻¹ and a kon of 76000 M⁻¹ s⁻¹. In addition, the Kd in test [2] turned out to be 0.24 nM.

B2: 9F3.3A4 (antibody, V domains shown)
VH: EVKVVASGGILVQPGGSLKLSCTASGFTFRSYVMSWVRQNPEKRLEWVAEINDGGSYTHYPDSVKGRFIISRDNDNHILYLQMNSLKSEDTAMYYCVRHGSTGYDYFGMDYWGQGTSVTVSS
VL: DVLMTQTPLSLSVSLGDQASISCRSSQTIAHRNGITYLEWYLQKPGQSPKLLMYKVSNRFSGVPDRFSGSGSGTDFTLKISRVEAEDLGLYYCFQNSHLPPTFGGGTNLEIKR
notes: Rat monoclonal antibody with kappa light chain; also called Rat Anti-REG4_H antibody; REG4 antibody 9F3.3A4
B2 showed a kon in test [1] of 66000 M⁻¹ s⁻¹.

B3: 70A9.3C2 (antibody, V domains shown)
VH: EIQLQQSGPELVKPGASVKVSCKASGYAFTSYNMYWVKQSHGQSLEWIGRIDPHNGVTTYNQKFKGKPTLTVDRSSSTAFMHLNSLTSEDSAVYYCAREGYDYDVWGQGTTLTVSS
VL: DIKMTQSPSSMYASLGERVSITCKASQDINSFLSWFQQKPGKSPKTLIYRANGLVDGVPSRFSGSGSGQDYSLTISSLEYEDMGIYYCLQYDEFPYTFGGGTKLEIKR
notes: Rat monoclonal antibody with kappa light chain; also called Rat Anti-REG4_H antibody; REG4 antibody 70A9.3C2
For B3, in test [1], the koff is 0.00101 s⁻¹ and the association rate constant (kon) is 1.68e+06 M⁻¹ s⁻¹. Also, the Kd in test [2] turned out to be 0.601 nM.

B4: 12E1.3C11 (antibody, V domains shown)
VH: DVQLLESGPGLVRPSQSLSLTCSVTGNSITSYYWTWIRQFPGNKLEWMGYIGYDDSNEYNPSLKNRISITRDTSKNQFFLKLNSVTSEDTATYFCAREDYDWFAYWGQGTLVTVSA
VL: DIVLTQSPVILSVTPGDSVSLSCRASQSIGNNLHWYHQKSHESPRLLIKYVSQSISGIPSRFSGSGSETGFTLRLNSVETEDFGMFFCQQSNSWPFTFGSGTKLEIKR
notes: Rat monoclonal antibody with kappa light chain; also called Rat Anti-REG4_H antibody; REG4 antibody 12E1.3C11
Turning to B4, in test [1], the koff was determined as 2.1e-05 s⁻¹ and the kon turned out to be 330000 M⁻¹ s⁻¹. Also, the Kd in test [2] was determined as 0.062 nM.

B5: 13E1.1B11 (antibody, V domains shown)
VH: QIQLVQSGPELKKPGETVKISCKASGYTFTNYGMNWVKQAPGKGLKWMGWINTYTGEPTYAADFKGRFALSLETSASTAYLQINNLKNEDTATYLCARRNWDPYALDYWGQGTSVTVSS
VL: DIVMTQSPSSLTVTAGEKFTMSCKSSQSLVNSGNQKNFLTWYQQKPGQPPKLLIYWASTRESGVPDRFTGSGSGTDFTLTISSVQAEDLAVYYCQNDYSYPYTFGGGTKLEIKR
notes: Rat monoclonal antibody with kappa light chain; also called Rat Anti-REG4_H antibody; REG4 antibody 13E1.1B11
Take B5: in test [1], the koff turned out to be 0.00117 s⁻¹ and the kon stood at 4000 M⁻¹ s⁻¹. The Kd in test [2] is 316 nM.
